Assay results: paper PMC5050111 (Cancer discovery, 2016)

Key:
ALK I1171 mutations = settings: cited from earlier work
ALK F1174 mutations = settings: prior reports; cited from earlier work
ALK L1198F = settings: dual ALK L1198F+C1156Y; cited from earlier work
[1] = system: ALK-positive NSCLC patients; test: Objective response; format: in vivo; settings: 21 patients on crizotinib in a clinical trial, RECIST version 1.0

SMILES | sensitivity of ALK I1171 mutations (ALK I1171 mutations) | sensitivity of ALK F1174 mutations (ALK F1174 mutations) | effect of ALK L1198F on sensitivity (ALK L1198F) | objective response [1] [%]
CCc1cc2c(cc1N1CCC(N3CCOCC3)CC1)C(C)(C)c1[nH]c3cc(C#N)ccc3c1C2=O [alectinib] | mediate resistance | remain sensitive | – | –
C[C@@H](Oc1cc(-c2cnn(C3CCNCC3)c2)cnc1N)c1c(Cl)ccc(F)c1Cl [crizotinib] | – | – | re-sensitized cells to crizotinib | 86
